Measured values as given in ChEMBL document CHEMBL1926502, “The discovery of UK-369003, a novel PDE5 inhibitor with the potential for oral bioavailability and dose-proportional pharmacokinetics” (Bioorg Med Chem, 2012).

How the values were obtained:
Homo sapiens = organism: Homo sapiens; experiment: Selectivity ratio of IC50 for PDE6 to IC50 for human PDE5
In short: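 PDE5 was prepared from human corpus cavernosum and cone PDE6 from dog retina (anion-exchange fraction). IC50s came from concentration–response curves in a scintillation proximity assay with [3H]/unlabelled cGMP (1:3) at about 1/3 Km, so IC50 = Ki. Buffer was 20 mM Tris-HCl pH 7.4, 5 mM MgCl2, 1 mg/mL BSA; 30–60 min at 30 °C, <30% turnover. Ratio = PDE6 IC50/PDE5 IC50.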

Caco-2 = experiment: Efflux ratio of apparent permeability from apical to basolateral to basolateral to apical side of human Caco2 cells; assay type: ADME, cell-based
In short: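 Caco-2 cell monolayers; flux measured in both directions, and the efflux ratio is taken as apical→basolateral flux divided by basolateral→apical flux.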

CCOc1ncc(S(=O)(=O)N2CCN(CC)CC2)cc1-c1nc2c(CC)n(CCOC)nc2c(=O)[nH]1
Ratio IC50 (Homo sapiens): 117 | Ratio (Caco-2): 1.5
